Hits are enriched below; roughly 16% of the tested compounds scored in any of these assays.
uPA surface inh: cell surface uPA generation inhibition | cell surface uPA generation assay, qHTS | 0.31% of 330,000 active | Potency, µM (top dose mostly 38.3 µM), inactives show at the top dose activity change, negative = inhibition, most hits filed as inhibitors; active means well fitted inhibition curve with a large enough effect; inconclusive means small, poorly fitted or top-dose-only effect; inactive means no such curve, though single readings can be large or run the other way; tested in mouse RAW 264.7 cells; further: potency means the concentration at half of the fitted maximal effect; on the % scale 0 is the no-effect control and ±100 the full control effect; nearly all actives have a fitted effect of over 55% in size
miR-21 reporter: miR-21 reporter, rising signal | AID 2288 | HeLa miR-21 FLuc reporter, luciferase, 48 h | 340,000 tested, under 10 active | Potency, µM (doses to about 38.3 µM), for inactives: at the top dose reporter change, positive = more light; active = well fitted rising curve with a large enough effect; inconclusive = small, poorly fitted or top-dose-only effect; inactive = no such curve, though single readings can be large or run the other way;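 note: % of control where 0% means no effect; miR-21 action dims this reporter so a rising signal means less miR-21 action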
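HeLa cells endogenously expressing miR-21, stably carrying CMV-driven firefly luciferase with a downstream miR-21 binding site, 2000 cells/well. Titrations up to approximately 40 uM, 48 hours; luciferase luminescence read.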
DT40 TDP1 CPT: growth inhibition of DT40 Tdp1-/-;hTDP1 cells with camptothecin (screen for TDP1 inhibitors); Potency, µM (top dose mostly 46.2 µM), inactives show top-dose activity change, negative = growth inhibition, hits mostly inhibitors; AID 686979; chicken DT40 Tdp1-/-;hTDP1 cells + 20 nM CPT, ATP luminescence, 48 h; 12% of 420,000 active; further: potency means the concentration at half of the fitted maximal effect; on the % scale 0 is the no-effect control and ±100 the full control effect; nearly all actives have a fitted effect of over 55% in size
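Cell growth measured by CellTiter-Glo luminescence after a minimum 48 h, 37 C compound exposure with 20 nM CPT in Tdp1-knockout DT40 cells stably expressing hTDP1, seeded 400/well; qHTS titration format.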
DT40 TDP1 no CPT: qHTS for Inhibitors of human tyrosyl-DNA phosphodiesterase 1 (TDP1): qHTS in cells in absence of CPT; DT40 Tdp1-/- hTDP1 cells, no CPT, ATP luminescence, 48 h; Potency, µM (doses to about 46.2 µM), without a hit: at the top dose activity change, negative = growth inhibition, hits mostly inhibitors; 15% of 420,000 active; AID 686978, 2013; further: potency means the concentration at half of the fitted maximal effect; on the % scale 0 is the no-effect control and ±100 the full control effect; nearly all actives have a fitted effect of over 55% in size
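Seeded 400 DT40-hTDP1 cells/well (vehicle DMSO, no 20 nM CPT); pinned compounds; ≥48 hr at 37 °C; CellTiter-Glo luminescence as viability measure.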
TDP1 inh: inhibitors of human tyrosyl-DNA phosphodiesterase TDP1. recombinant TDP1, AlphaScreen DNA substrate cleavage. Potency, µM (series often up to 130 µM), inactives show at the highest dose activity change, negative = inhibition, usual class: inhibitors. 0.28% of 350,000 active. AID 485290; further: potency means the concentration at half of the fitted maximal effect; on the % scale 0 is the no-effect control and ±100 the full control effect; nearly all actives have a fitted effect of over 40% in size
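Tdp1 1 nM final; 15 min RT w/ cpd; substrate 15 nM, 5 min; beads 10 ug/ml, 10 min; AlphaScreen read. Neg ctrl: no enzyme.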
* hit, by the source's call; ? = inconclusive; . = no result; ! = a repeat was not active; [ ] = dose if it differs, or a comment. Unless noted, the call rests on the fitted dose curve; in most records, active means well fitted curve in the direction sought with a large enough effect; inconclusive means small, poorly fitted or top-dose-only effect, or another doubt; inactive means no such curve, though single readings can be large; an effect the other way counts as inactive or inconclusive.

no.	SMILES	uPA surface inh	miR-21 reporter	DT40 TDP1 CPT	DT40 TDP1 no CPT	TDP1 inh
1	COc1ccc(C(=O)CSc2nnc(Cn3nnc4ccccc43)n2C)cc1	3.8%	-0.5%	-17.3%	?	3.4%
2	COc1ccc(C(=O)/C=C/c2ccc(OC)c(Cn3nnc4ccccc43)c2)cc1	-9.0%	29.8%	18.4µM*	20.6µM*	2.7%
3	Cc1cc(C)nc(NNS(=O)(=O)c2ccc(F)c(Cl)c2)n1	-14.3%	.	23.1µM*	?	-7.1%
4	Cc1c(C(=O)Nc2ccc(Br)cc2F)sc2ncnc(N(C)C3CCCCC3)c12	.	-11.8%	-0.2%	-4.3%	3.4%
5	Cc1c(C(=O)NC2CCCC2)sc2ncnc(NCCN(C)C)c12	.	.	-5.3%[9.04 µM]	6.5%	.
6	Cc1cccc(CNC(=O)c2sc3ncnc(N(C)C4CCCCC4)c3c2C)c1	.	7.4%	18.4µM*	20.6µM*	8.3%
7	Cc1c(C(=O)NCc2cccc(Cl)c2)sc2nc3n(c(=O)c12)CCC3	.	-5.4%	?	?	6.5%
8	CCOc1ccc(CNC(=O)c2sc3ncnc(N(C)C4CCCCC4)c3c2C)cc1	.	0.3%	16.4µM*	?	2.5%
9	COc1ccc(CNC(=O)c2sc3nc[nH]c(=O)c3c2C)cc1	.	-15.9%	2.3%	-15.4%	4.4%
10	CCc1ccc(NC(=O)c2sc3ncnc(N(C)C4CCCCC4)c3c2C)cc1	.	2.1%	18.4µM*	20.6µM*	-3.4%

Overlap with the part before: 4 entries, followed by the next part.
no.	SMILES	uPA surface inh	miR-21 reporter	DT40 TDP1 CPT	DT40 TDP1 no CPT	TDP1 inh
7	Cc1c(C(=O)NCc2cccc(Cl)c2)sc2nc3n(c(=O)c12)CCC3	.	-5.4%	?	?	6.5%
8	CCOc1ccc(CNC(=O)c2sc3ncnc(N(C)C4CCCCC4)c3c2C)cc1	.	0.3%	16.4µM*	?	2.5%
9	COc1ccc(CNC(=O)c2sc3nc[nH]c(=O)c3c2C)cc1	.	-15.9%	2.3%	-15.4%	4.4%
10	CCc1ccc(NC(=O)c2sc3ncnc(N(C)C4CCCCC4)c3c2C)cc1	.	2.1%	18.4µM*	20.6µM*	-3.4%
11	Cc1c(C(=O)NCc2cccc(Cl)c2)sc2ncnc(N(C)C3CCCCC3)c12	.	24.6%	20.6µM*	?	-5.4%
12	Cc1c(C(=O)NC2CCCCC2)sc2ncnc(NCCN(C)C)c12	.	.	-0.5%	-1.9%	.
13	Cc1c(C(=O)NC(C)c2ccccc2)sc2ncnc(N(C)C3CCCCC3)c12 (centres undefined)	.	17.9%	6.51µM*	?	-2.5%
14	CCN(CC)C(=O)c1ccc(-c2nnc(Nc3cccc(O)c3)c3ccccc23)cc1	1.0%	10.7%	?	?	.
15	CCOc1ccc2[nH]c(=O)c(CN(CCN3CCCC3)C(=S)Nc3ccccc3OCC)cc2c1	-26.8%	3.0%	?	23.1µM*	0.0%
16	COc1ccc2[nH]c(=O)c(CN(CCN3CCCC3)C(=O)Nc3ccccc3Cl)cc2c1	3.4%	18.1%	?	?	1.9%
17	CCOc1ccc2[nH]c(=O)c(CN(CCO)C(=O)c3ccc(Br)cc3)cc2c1	-3.0%	-0.6%	?	-27.0%	2.8%
18	COc1ccc2[nH]c(=O)c(CN(Cc3ccco3)C(=O)c3ccccc3)cc2c1	-3.1%	-11.1%	?	-12.6%	4.1%
19	CCOc1ccc2[nH]c(=O)c(CN(CCc3ccccc3)C(=O)c3cnccn3)cc2c1	3.4%	-4.1%	?	16.4µM*	4.2%
20	CCOc1ccc2[nH]c(=O)c(CN(Cc3ccco3)C(=O)c3cccc(F)c3)cc2c1	4.0%	-1.3%	?	23.1µM*	1.9%
21	CCOc1ccc2[nH]c(=O)c(CN(Cc3ccccc3OC)C(=O)c3ccccc3)cc2c1	.	-0.1%	6.51µM*	3.26µM*	6.8%
22	CCOC(=O)C1=C(C)N=C2SCCC(=O)N2C1c1ccc(OCc2ccccc2)c(OC)c1 (centres undefined)	.	-10.1%	?	?	5.3%
23	CC1(C)Oc2ccc(C#N)cc2[C@H](N2CCCC2=O)[C@H]1O	.	.	.	.	8.2%[56.1 µM]
24	COc1cc(CCC(=O)NCC2CCCO2)cc(OC)c1OC (centres undefined)	1.0%	-5.3%	-1.4%	7.3%	0.9%
25	CCOc1ccc2[nH]c(=O)c(CN(Cc3ccco3)C(=O)c3ccc(Br)cc3)cc2c1	-6.8%	0.2%	?	3.26µM*	7.7%
26	Cc1cc(C)c2nc3nc(C)c(C)cc3c(N)c2c1	-13.1%	27.4%	8.2µM*	6.51µM*	7.1%
27	CN(Cc1ccccc1)C(=O)Cn1c(=O)c2cccn2c2ccc(F)cc21	.	-7.5%	23.1µM*	6.51µM*	0.0%
28	CN(C)CCNC(=O)Cn1c(=O)c2cccn2c2ccc(F)cc21	?	-2.8%	23.1µM*!	16.4µM*!	3.9%
29	CC(C)N(CCCNC(=O)Cn1c(=O)c2cccn2c2ccccc21)Cc1ccccc1	-5.3%	-2.7%	18.4µM*	-15.5%	1.7%
30	Cc1cccc(N2CCN(C(=O)Cn3c(=O)c4cccn4c4ccc(F)cc43)CC2C)c1 (centres undefined)	.	-7.4%	18.4µM*	18.4µM*	1.3%
31	O=C(Cn1c(=O)c2cccn2c2ccc(F)cc21)N1CCN(c2ccc(F)cc2)CC1	-3.0%	-4.2%	?	?	2.7%
32	CN1CCN(C2Cc3ccccc3Sc3ccc(S)cc32)CC1 (centres undefined)	.	.	.	.	16.3%
33	O=C(c1ccccc1Cl)N1CCNCC1	6.7%	-5.6%	3.8%	0.0%	2.3%
34	Clc1ccc2c(c1)C(N1CCNCC1)Cc1ccccc1S2 (centres undefined)	-7.0%	?	?	23.1µM*	6.6%
35	Clc1cccc2c1Sc1ccccc1CC2N1CCNCC1 (centres undefined)	5.4%	?	18.4µM*	18.4µM*	0.0%
36	CCOc1ccccc1/C=C(\C#N)C1=CCCC1	-3.1%	0.0%	6.2%	-0.9%	6.9%
37	CCNC(=S)N1CCc2cc(OC)c(OC)cc2C1COc1ccc(F)cc1 (centres undefined)	-5.6%	-5.9%	-2.4%	-4.0%	3.8%
38	COc1ccc2nc(-c3ccccc3)[nH]c(=O)c2c1	6.1%	.	-0.3%	-10.6%	.
39	COc1ccc(-c2nc3ccc(N4CCCC4)cc3c(=O)[nH]2)cc1OC	-4.0%	-7.2%	13µM*	20.6µM*	2.8%
40	CSc1ccc(/C=C/C(=O)Nc2ccccc2)cc1	-4.1%	-8.6%	?	-23.8%	0.0%
41	OC(C1=C/C(=C\c2ccncc2)c2ccccc21)c1ccncc1 (centres undefined)	.	.	11.2µM*	11.2µM*	.
42	CSc1ccc(/C=C2\C=C(C(O)c3ccc(SC)cc3)c3ccccc32)cc1 (centres undefined)	.	.	10µM*	10µM*	.
43	Cc1ccccc1C(O)c1ccncc1 (centres undefined)	.	-2.7%	-3.3%	-2.2%	1.9%
44	CC(=O)Nc1ccc(/C=C2\C=C(C(O)c3ccc(NC(C)=O)cc3)c3ccccc32)cc1 (centres undefined)	.	.	20µM*	10µM*	.
45	CC(=O)Nc1ccc(/C=C2\Sc3ccccc3C2=O)cc1	0.4%	-7.2%	5.1%	-3.5%	1.4%
46	COc1cccc(CNCCNC(=O)c2ccco2)c1OC	5.5%	0.7%	-7.2%	-21.9%	1.8%
47	O=C(Nc1nc2ccccc2n1CCN1CCOCC1)c1ccccc1	2.2%	11.8%	-29.4%	-25.1%	.
48	O=C(NCCCN1CCOCC1)c1cn(-c2ccccc2)nc1-c1ccc(Br)cc1	-2.4%	.	?	16.4µM*	4.0%
49	O=C(Nc1nc2ccccc2n1CCN1CCOCC1)c1cn(-c2ccccc2)nc1-c1ccccc1	0.9%	?	18.4µM*	18.4µM*	12.3%

A few values from the results shown.
compound 42 | DT40 TDP1 CPT = 10µM*
compound 41 | DT40 TDP1 no CPT = 11.2µM*
compound 48 | uPA surface inh = -2.4%
compound 44 | DT40 TDP1 CPT = 20µM*
compound 43 | TDP1 inh = 1.9%
